According to ChEMBL document CHEMBL1124049, “Synthesis and biological characterization of pyridohomotropanes. Structure-activity relationships of conformationally restricted nicotinoids” (J Med Chem, 1988):
pIC50: −log10 of the molar value.

Protein sequences, listed by entry. Tags and fused reporters are not part of them. Lines headed by an entry give the natural chain unless they say otherwise; changes in a name come on top. Residues count along the entry.
UniProt P04757: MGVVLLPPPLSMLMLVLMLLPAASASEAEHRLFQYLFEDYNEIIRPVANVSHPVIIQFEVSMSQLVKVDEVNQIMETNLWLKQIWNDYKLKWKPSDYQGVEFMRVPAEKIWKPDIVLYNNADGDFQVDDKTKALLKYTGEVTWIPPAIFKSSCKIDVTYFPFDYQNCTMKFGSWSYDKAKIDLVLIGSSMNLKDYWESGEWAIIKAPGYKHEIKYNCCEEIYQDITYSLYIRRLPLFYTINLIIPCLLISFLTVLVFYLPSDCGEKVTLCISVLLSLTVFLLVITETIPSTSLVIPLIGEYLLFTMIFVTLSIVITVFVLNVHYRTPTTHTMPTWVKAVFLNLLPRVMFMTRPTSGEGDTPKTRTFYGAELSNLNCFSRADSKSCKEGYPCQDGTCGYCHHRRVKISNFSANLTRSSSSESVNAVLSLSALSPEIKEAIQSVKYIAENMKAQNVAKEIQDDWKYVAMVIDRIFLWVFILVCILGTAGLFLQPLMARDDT
UniProt P09483: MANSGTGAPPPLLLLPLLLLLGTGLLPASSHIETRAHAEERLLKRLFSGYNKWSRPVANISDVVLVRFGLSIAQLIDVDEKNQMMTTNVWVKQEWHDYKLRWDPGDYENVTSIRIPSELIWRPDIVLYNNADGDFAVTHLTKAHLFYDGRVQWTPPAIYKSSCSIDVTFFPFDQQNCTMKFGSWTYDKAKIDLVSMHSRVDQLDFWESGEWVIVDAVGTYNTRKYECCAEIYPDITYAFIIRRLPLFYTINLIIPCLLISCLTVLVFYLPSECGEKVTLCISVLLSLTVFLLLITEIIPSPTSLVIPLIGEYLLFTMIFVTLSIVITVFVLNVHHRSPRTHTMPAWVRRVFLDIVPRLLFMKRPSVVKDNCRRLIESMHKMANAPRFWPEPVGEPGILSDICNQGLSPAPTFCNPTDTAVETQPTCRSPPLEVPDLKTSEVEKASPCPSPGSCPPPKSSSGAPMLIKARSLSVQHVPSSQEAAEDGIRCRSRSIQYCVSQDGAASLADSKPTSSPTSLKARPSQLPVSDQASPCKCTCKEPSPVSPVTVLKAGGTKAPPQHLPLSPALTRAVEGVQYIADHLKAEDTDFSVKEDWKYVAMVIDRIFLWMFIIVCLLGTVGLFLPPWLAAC
UniProt P12389: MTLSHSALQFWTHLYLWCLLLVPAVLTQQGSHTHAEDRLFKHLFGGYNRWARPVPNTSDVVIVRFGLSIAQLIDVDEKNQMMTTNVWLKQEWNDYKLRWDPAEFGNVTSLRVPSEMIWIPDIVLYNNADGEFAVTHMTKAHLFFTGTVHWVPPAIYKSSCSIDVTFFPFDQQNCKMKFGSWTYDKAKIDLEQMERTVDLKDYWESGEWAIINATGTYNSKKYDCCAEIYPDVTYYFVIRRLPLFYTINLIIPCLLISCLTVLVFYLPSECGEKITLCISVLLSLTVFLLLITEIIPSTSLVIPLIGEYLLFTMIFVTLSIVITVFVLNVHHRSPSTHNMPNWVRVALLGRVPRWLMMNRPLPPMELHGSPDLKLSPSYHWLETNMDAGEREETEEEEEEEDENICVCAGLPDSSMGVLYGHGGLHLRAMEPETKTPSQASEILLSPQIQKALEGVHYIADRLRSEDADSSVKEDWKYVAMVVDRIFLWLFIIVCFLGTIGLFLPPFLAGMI
UniProt P12390: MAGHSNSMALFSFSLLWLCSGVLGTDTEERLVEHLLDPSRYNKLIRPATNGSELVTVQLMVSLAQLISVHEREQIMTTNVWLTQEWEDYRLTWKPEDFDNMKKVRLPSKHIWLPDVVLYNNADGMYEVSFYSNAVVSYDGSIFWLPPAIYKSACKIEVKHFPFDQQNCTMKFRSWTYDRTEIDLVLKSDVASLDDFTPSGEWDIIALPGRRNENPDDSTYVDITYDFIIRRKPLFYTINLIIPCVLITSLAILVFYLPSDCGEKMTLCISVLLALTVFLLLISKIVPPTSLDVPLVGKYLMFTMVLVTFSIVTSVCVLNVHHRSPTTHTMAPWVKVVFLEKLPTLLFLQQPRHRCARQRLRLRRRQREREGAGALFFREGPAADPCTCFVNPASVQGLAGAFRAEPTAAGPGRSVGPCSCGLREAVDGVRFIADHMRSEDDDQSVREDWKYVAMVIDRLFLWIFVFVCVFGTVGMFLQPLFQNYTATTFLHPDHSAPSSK
UniProt P12391: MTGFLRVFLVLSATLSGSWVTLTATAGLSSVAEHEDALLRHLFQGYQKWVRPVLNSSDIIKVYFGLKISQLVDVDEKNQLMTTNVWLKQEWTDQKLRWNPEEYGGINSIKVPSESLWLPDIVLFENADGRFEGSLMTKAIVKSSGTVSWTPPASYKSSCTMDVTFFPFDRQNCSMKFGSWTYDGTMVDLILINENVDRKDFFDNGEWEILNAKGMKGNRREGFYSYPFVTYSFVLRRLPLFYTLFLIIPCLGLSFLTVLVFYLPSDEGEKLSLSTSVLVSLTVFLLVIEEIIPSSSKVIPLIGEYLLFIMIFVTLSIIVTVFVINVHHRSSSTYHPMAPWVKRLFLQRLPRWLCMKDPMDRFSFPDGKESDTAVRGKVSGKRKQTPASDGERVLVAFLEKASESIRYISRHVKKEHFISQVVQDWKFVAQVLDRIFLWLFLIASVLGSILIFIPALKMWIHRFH
UniProt P12392: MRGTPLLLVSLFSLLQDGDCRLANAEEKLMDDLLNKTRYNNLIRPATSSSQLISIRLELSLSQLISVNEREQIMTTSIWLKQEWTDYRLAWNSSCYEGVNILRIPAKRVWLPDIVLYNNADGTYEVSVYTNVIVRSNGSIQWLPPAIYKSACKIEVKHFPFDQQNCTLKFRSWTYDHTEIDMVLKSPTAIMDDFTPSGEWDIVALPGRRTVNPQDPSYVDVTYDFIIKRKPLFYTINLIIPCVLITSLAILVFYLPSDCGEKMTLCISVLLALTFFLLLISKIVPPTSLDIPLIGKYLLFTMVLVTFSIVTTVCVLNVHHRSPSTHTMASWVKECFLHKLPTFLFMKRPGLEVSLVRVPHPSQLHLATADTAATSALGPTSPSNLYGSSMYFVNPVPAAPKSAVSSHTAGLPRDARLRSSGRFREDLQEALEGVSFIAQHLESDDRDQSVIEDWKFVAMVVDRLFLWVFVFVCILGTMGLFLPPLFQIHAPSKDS
UniProt P20420: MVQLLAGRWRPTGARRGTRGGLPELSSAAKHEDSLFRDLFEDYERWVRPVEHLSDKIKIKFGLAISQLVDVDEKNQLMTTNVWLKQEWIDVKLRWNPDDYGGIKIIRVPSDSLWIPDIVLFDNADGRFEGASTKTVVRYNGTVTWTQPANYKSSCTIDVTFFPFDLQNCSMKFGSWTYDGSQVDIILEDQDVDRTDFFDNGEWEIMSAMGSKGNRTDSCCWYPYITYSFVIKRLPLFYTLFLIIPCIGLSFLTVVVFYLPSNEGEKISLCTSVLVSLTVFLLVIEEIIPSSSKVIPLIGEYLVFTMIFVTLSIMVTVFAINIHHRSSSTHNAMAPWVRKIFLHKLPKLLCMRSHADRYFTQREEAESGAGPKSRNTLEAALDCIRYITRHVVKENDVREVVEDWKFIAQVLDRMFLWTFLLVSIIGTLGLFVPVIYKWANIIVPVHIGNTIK
UniProt P43143: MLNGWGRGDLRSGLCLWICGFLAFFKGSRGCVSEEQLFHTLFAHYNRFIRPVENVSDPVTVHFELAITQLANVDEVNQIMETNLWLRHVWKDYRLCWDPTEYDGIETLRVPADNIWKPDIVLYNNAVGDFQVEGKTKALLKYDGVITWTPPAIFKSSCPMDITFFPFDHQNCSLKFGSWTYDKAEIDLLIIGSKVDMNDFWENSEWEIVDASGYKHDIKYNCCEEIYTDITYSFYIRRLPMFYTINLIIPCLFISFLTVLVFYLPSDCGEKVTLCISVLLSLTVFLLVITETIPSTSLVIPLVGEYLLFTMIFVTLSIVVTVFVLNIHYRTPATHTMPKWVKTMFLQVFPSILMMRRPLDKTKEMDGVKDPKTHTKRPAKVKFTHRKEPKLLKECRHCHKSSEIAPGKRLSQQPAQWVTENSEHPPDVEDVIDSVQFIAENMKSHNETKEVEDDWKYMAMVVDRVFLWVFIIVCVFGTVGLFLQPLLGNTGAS
UniProt P43144: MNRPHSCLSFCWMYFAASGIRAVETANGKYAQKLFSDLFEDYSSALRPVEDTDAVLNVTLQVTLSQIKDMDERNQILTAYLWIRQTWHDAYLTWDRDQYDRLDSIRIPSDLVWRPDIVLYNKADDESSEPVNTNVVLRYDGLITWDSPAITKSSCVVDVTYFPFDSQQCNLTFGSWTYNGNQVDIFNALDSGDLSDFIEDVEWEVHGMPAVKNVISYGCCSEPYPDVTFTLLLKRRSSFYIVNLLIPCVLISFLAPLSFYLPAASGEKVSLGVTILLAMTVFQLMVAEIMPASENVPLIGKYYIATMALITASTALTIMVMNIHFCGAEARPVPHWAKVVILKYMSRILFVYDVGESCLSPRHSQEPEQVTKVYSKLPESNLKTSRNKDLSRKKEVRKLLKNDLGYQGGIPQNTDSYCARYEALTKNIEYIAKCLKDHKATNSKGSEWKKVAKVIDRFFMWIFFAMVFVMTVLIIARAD
UniProt Q05941: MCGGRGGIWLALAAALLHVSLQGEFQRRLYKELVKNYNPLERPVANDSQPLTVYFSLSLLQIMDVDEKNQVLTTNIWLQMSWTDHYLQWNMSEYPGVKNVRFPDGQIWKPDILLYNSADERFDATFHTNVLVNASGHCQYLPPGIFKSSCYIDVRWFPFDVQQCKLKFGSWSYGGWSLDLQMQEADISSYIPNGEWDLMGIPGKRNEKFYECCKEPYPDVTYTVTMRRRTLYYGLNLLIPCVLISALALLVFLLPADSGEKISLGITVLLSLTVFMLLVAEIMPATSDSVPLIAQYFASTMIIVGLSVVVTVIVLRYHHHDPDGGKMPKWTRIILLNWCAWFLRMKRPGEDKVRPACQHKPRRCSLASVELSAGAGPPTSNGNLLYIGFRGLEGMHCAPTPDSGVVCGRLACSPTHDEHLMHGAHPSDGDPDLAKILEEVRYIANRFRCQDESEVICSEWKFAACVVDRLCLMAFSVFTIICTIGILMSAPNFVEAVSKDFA
UniProt Q9JLB5: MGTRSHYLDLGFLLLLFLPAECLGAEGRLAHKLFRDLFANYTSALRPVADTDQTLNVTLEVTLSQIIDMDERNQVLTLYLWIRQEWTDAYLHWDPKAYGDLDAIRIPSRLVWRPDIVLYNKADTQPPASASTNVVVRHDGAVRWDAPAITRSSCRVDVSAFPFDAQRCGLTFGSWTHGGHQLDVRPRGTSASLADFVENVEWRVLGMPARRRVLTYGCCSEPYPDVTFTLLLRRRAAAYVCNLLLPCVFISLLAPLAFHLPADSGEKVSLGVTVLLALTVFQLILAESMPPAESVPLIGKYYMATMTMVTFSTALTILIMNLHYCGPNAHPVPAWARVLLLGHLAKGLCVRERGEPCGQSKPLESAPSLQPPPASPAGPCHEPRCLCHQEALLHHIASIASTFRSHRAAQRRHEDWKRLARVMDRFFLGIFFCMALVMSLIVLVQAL
UniProt P02710, 25-461 limits assumed: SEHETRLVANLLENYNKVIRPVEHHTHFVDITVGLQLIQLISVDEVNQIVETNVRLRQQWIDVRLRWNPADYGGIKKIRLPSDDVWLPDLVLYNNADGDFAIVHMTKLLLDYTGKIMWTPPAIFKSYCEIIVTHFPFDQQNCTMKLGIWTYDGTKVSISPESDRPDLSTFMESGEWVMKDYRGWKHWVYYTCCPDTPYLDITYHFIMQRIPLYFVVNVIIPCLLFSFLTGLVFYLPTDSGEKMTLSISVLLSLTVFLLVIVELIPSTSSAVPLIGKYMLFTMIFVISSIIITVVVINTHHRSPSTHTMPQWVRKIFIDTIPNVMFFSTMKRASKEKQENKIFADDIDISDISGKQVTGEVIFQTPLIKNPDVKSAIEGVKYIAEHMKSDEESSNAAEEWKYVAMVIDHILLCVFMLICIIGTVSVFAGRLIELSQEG
UniProt P02718, 22-522 limits assumed: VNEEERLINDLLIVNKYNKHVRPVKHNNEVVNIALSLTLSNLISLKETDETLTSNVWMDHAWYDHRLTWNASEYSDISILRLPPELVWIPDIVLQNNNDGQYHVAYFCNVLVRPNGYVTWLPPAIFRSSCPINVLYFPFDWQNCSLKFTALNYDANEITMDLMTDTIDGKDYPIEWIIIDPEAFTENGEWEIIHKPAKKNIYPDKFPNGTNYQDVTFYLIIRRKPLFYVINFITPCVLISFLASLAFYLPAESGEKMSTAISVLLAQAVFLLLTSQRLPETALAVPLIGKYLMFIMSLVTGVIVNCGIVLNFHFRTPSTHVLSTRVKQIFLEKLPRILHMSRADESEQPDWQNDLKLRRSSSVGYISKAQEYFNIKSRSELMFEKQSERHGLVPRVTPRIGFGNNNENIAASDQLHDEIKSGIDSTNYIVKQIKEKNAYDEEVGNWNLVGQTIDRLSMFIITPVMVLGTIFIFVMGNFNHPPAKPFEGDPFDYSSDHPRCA

Legend:
[1] = biological target: Neuronal acetylcholine receptor (UniProt P04757+P09483+P12389+P12390+P12391+P12392+P20420+P43143+P43144+Q05941+Q9JLB5); test: Inhibition of [3H]MCC binding to rat brain membranes; assay type: cell membranes, Membrane
Summary of the method: (§1)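 Membranes from whole rat brain or Torpedo electric organ, homogenized in 30 volumes 0.05 M NaH2PO4 pH 7.0 and spun at 50000g for 30 min. Each tube held 2 mg brain protein or 1 mg electric organ protein, 1 × 10⁻⁹ M radioligand (final), and varied agent concentrations in 0.05 M NaPO4 pH 7.0.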

Acetylcholine receptor = Acetylcholine receptor (Torpedo californica, UniProt P02710+P02712+P02718+P02714); test: Inhibition of [3H]MCC binding to torpedo electroplax membranes; summary of the method: as §1

How did the pIC50 [1] turn out when CC(=O)C1=CCCC2CCC1N2 (configuration not stated) was run?
Its pIC50 is 8.00.

And the pIC50 (Acetylcholine receptor)?
The pIC50 was 10.00.
